{"source": "paper PMC5007486", "about": "“Thermodynamic instability of viral proteins is a pathogen-associated molecular pattern targeted by human defensins” (Scientific Reports, 2016)", "key": {"PFV IN": {"system": "PFV IN", "assay_type": "binding, prototype foamy virus (PFV)", "conditions": "DSF, absence of salt (20 mM HEPES, pH 7.5)", "description": "(§1) Differential scanning fluorimetry (DSF)"}, "TEV Protease": {"system": "TEV Protease", "assay_type": "binding, tobacco etch virus (TEV)", "conditions": "DSF, absence of salt (20 mM HEPES, pH 7.5)", "description": "as §1"}}, "note": "Where no end group is shown, it is not given here.", "data": [{"substance": "hBD-1: human β-defensin hBD-1, prepared by solid-phase peptide synthesis (DHYNCVSSGGQCLYSACPIFTKIQGTCYRGKAKCCK; ends and bridges not checked; cysteine pairing not given here; UniProt P60022 33-68, looked up)", "values": [{"measurement": "Effect on melting profile of PFV IN, no salt", "setting": "PFV IN", "value": "no significant changes in melting profiles"}, {"measurement": "Effect on melting profile of TEV protease, no salt", "setting": "TEV Protease", "value": "no significant changes in melting profiles"}]}]}
